# Data published in patent US12509459B2, “Inhibitors of NLRP3 inflammasome” (BioAge Labs, Inc., priority 2024, dated 2025).
# Protein sequences, listed by entry. Tags and fused reporters are not part of them.
# UniProt Q96P20, whole entry: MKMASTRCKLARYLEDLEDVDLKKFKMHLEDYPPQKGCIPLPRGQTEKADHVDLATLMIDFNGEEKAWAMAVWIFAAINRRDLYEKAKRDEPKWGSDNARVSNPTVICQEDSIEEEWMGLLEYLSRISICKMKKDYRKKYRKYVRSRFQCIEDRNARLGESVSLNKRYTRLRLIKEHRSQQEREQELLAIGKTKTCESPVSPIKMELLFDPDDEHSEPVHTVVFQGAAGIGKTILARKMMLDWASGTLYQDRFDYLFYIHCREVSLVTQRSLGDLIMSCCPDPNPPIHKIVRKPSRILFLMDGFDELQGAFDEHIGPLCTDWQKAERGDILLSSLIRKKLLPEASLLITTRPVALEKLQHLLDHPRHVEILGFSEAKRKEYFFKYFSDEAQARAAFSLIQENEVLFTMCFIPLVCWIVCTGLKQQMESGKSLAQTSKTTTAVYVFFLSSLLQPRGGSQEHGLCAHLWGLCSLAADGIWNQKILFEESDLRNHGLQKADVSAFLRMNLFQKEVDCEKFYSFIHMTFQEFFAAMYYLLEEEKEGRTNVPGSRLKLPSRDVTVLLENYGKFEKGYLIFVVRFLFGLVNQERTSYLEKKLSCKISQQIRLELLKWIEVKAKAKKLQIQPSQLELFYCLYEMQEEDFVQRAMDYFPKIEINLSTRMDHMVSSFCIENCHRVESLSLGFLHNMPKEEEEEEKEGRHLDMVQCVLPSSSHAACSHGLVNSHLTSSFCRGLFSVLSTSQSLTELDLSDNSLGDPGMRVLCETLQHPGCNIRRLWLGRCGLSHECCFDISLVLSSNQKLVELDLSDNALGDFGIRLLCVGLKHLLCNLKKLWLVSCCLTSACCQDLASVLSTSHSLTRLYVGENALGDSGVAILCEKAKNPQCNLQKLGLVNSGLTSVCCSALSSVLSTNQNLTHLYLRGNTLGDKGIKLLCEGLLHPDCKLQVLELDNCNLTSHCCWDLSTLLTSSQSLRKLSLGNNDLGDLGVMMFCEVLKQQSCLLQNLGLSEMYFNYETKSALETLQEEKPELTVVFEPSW
# Target: NLRP3 (Homo sapiens, UniProt Q96P20)
# Test: THP-1 cell-based NLRP3 activation assay
# Conditions: PMA-differentiated THP-1 cells, LPS 100 ng/mL then 10 μM nigericin
structure (smiles),measurement,value
CCOc1cc(C(=O)N(C)[C@@H](c2cnc(C)c3cn[nH]c23)[C@H](C)O)ccc1-c1cccc(Cl)c1,IC50,< 100 nM
